# Results published in US4439444A, “Amidobenzamides, their salts and pharmaceutical compositions containing them” (Sanofi, priority 1981, dated 1984).
# System: immature Sprague Dawley rats, castrated, testosterone-stimulated genitals and levator ani muscle
# Conditions: rat, in vivo, 200 mg/kg/day
compound,measurement,value
"CN(C)Cc1ccc(CSCCNC(=O)c2cccc(NS(=O)(=O)c3ccccc3)c2)o1 [CM 57888, 3-benzenesulfonamido-N-[2-(5-dimethylaminomethylfuran-2-ylmethylthio)ethyl]benzamide]",anti-androgenic and anti-anabolising activity,much lower than that of the reference compounds
